Reference: ChEMBL document CHEMBL2390866, “Novel pyrimidoazepine analogs as serotonin 5-HT(2A) and 5-HT(2C) receptor ligands for the treatment of obesity” (Eur J Med Chem, 2013)

Sequences of proteins named here, by UniProt entry; tags and fusion partners are left off. A change or cut given only in a name is not applied to a line headed by its entry.
UniProt P28223, whole entry: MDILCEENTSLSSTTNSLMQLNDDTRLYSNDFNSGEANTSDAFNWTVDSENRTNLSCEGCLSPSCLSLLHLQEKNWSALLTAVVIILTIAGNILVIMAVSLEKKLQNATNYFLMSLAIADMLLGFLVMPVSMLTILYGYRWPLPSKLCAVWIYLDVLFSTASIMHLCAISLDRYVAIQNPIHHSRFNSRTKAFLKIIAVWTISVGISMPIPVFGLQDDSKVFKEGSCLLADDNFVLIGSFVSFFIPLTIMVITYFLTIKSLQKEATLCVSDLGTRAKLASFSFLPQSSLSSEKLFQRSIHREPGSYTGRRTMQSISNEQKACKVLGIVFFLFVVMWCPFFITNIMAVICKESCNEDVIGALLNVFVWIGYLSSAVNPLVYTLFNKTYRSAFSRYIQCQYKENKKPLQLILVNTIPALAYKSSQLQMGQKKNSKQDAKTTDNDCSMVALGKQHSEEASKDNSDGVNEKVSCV
UniProt P28335: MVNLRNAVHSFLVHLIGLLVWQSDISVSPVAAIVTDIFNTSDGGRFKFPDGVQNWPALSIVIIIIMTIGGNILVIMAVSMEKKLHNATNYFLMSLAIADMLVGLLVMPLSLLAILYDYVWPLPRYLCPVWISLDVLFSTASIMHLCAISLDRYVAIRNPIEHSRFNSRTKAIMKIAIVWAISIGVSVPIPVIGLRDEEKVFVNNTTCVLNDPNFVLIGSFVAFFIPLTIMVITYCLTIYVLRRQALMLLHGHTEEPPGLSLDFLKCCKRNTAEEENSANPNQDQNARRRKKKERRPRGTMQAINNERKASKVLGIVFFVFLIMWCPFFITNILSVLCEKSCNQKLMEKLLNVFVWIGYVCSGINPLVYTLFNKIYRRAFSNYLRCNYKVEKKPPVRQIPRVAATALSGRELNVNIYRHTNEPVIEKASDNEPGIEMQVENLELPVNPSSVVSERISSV

Columns and labels:
[1] = target: 5-hydroxytryptamine receptor 2A (Homo sapiens, UniProt P28223); test: Agonist activity at serotonin-activated human recombinant 5HT-2A receptor expressed in HEK293 cells assessed as increase in intracellular calcium level after 5 mins measured for 1 min by fluorescence assay; type: functional, cell-based
[2] = target: 5-hydroxytryptamine receptor 2C (Homo sapiens, UniProt P28335); test: Agonist activity at serotonin-activated human recombinant 5HT-2C receptor expressed in HEK293 cells assessed as increase in intracellular calcium level after 5 mins measured for 1 min by fluorescence assay; type: functional, cell-based

Clc1cccc(N2CCNCC2)c1 [CHLOROPHENYLPIPERAZINE]
EC50 [1]: 7.2 nM | EC50 [2]: 8.1 nM
